Test results reported in paper PMC7203973 (ACS Omega, 2020).

Tests used:
RBC partitioning = type: in vitro ADME; conditions: rat blood, 1000 nM, 60 min
[1] = cited from earlier work

For `CC(C)NC[C@H](O)COc1cccc2ccccc12` (racemic) [propanolol], the “blood-to-plasma ratio (KRBC/Plasma)” value (RBC partitioning) is given as 0.90 ± 0.03 and the “blood-to-plasma ratio (KRBC/Plasma), reported in the literature” value [1] is given as 1.0 ± 0.2.
